Measured values as given in US20040106678A1, “Compositions for the parenteral administration of calcium and magnesium” (priority 2002, published 2004).

How the values were obtained:
[1] = cited from earlier work
[2] = solubility in water; format: physicochemical

| Substance | solubility in water (parts of water needed to dissolve) ([1]; 20° C., slowly dissolves) | solubility in water with complexing agent ([1]; adding a complexing agent like boric acid) [% by weight] | solubility over pH range ([2]; broad range of pH values) | saturated aqueous solution concentration ([2]; water, 20° C.) [% by weight] |
| --- | --- | --- | --- | --- |
| D-gluconic acid calcium salt [Calcium gluconate] | 30 parts of water | ≥ 20 | – | – |
| calcium 3-hydroxy-3-methylbutyrate [CaHMB] | – | – | remain highly soluble | 27 |
